Literature values, collected in patent publication US12533344B2, “Formulations” (Glaukos Corporation, priority 2021, dated 2026).

Details: for Effective Buffering Range: pH range

| Substance | Effective Buffering Range | pKa (buffers and stabilizers of Table 1) |
| --- | --- | --- |
| Acetic acid/acetate buffer | 3.0-6.2 |  |
| Boric acid/borate buffer | 8.0-10.0 | 9.14 |
